Assay results published in US11111242B2, “Pyrrolo[2,3-d]pyrimidinyl, pyrrolo[2,3-b]pyrazinyl and pyrrolo[2,3-d]pyridinyl acrylamides” (Pfizer Inc., priority 2013, dated 2021).

Test system: IL-15 induced P-STAT5 in human PBMC (total lymphocytes)
Test: PBMC IL-15 Induced P-STAT5
Assay type: cell-based
Settings: IL-15 stimulated, read-out: PBMC IL15-pSTAT5 IC50
Procedure: PBMC IL-15 Induced P-STAT5
Frozen human PBMC (200-250 million cells/vial) was thawed at 37° C. The cells were transferred to 10 mL warm medium in a 50-mL conical tube, and centrifuged at 1,200 RPM at room temperature for 5 min. The supernatant was aspirated. Cells were suspended in 3 mL warm human plasma and incubated at 37° C. in a tissue culture incubator for 1.5 to 2 h. After adding 47 ml D-PBS (37° C.) to PBMC/FBS suspension, centrifuging at 1,200 RPM at room temperature for 5 min, and aspirating the supernatant, the cells were resuspended in 20 mL warm RPMI medium. Ninety μL of cell suspension were pipetted per well in a 96-well, deep-well, V-bottom plate, and the plate was incubated at 37° C. for 30 min. Five μL of compound were transferred to each well (final 0.2% DMSO), vortex gently and incubate at 37° C. for 15 min; 5 μL 4% DMSO/PBS were added to the control wells. […] Samples were analyzed using a BD Calibur™ or BD FACSCanto™ flow cytometer equipped with the BD High Throughput Sampler.

C=CC(=O)N1CC[C@@H]2CCN(c3ncnc4[nH]ccc34)[C@@H]2C1 (single isomer, unassigned) [Example 8]
IC50: 116 nM
